Results from patent EP2623495B1, “Positively charged water-soluble prodrugs of n-arylanthranilic acids with very fast skin penetration rate” (Techfields Biochem Co. Ltd, priority 2006, dated 2008).

Assay: Solubility in water

S-dimethylaminoethyl 2-[[(3-trifluoromethyl)phenyl]amino] benzoate.AcOH
solubility in water: 400 mg/mL
